In US5514694A, “Peptidyl ketoamides” (Georgia Tech Research Corp, priority 1993, dated 1996) one finds Ki data, which are given here for 1 compound.

This experiment concerns the target T1, cathepsin B (Homo sapiens, UniProt P07858).
T1 construct: purchased Sigma
The experiment is described as follows: Cathepsin B inhibition (KI). Format: biochemical. The note with it: Table 3, M1 CO-Leu--AA--CONH-R; read-out: KI Cat B. As to the method: HEPES, heparin, and A23187 were obtained from Calbiochem. Suc-Leu-Tyr-AMC and chromogenic substrates were obtained from Sigma. Calpain I was purified from human erythrocytes according to the method of Kitahara (Kitahara et al., J. Biochem. 95, 1759-1766) omitting the Blue-Sepharose step. Calpain II from rabbit muscle and cathepsin B were purchased from Sigma. Papain was purchased from Calbiochem.
Peptide α-ketoamides were assayed as reversible enzyme inhibitors. Various concentrations of inhibitors in Me2 SO were added to the assay mixture which contained buffer and substrate. The reaction was started by the addition of the enzyme and the hydrolysis rates were followed spectrophotometrically or fluorimetrically.
Calpain I from human erythrocytes and calpain II from rabbit were assayed using Suc-Leu-Tyr-AMC Sasaki et al., J. Biol. Chem. 259, 12489-12494 (1984); incorporated herein by reference!, and the AMC (7-amino-4-methylcoumarin) release was followed fluorimetrically (excitation at 380 nm, and emmision at 460 nm). Calpains were assayed in 25 mM Tris pH=8.0, 10 mM CaC12. Fluorescence was followed using a Gilson FL-1A fluorometer or a Perkin-Elmer 203 Fluorescence spectrometer. […] Enzymatic hydrolysis rates were measured at various substrate and inhibitor concentrations, and KI values were determined by either Lineweaver-Burk plots or Dixon plots. […]

`CCC(NC(=O)C(CC(C)C)NC(=O)C(c1ccccc1)c1ccccc1)C(=O)C(=O)NCc1ccccn1` (stereo not drawn) [Ph2 CH-CO-Leu-Abu-CONH-CH2 -2-pyridyl, Ph2 CHCO-Leu-Abu-CONH-2-CH2 -Pyridyl]: the Ki turned out to be 2.8 µM.

One may read the Ki as the dissociation constant of the complex between target and ligand, obtained from inhibition or displacement.
